# Columns and labels:
# By UniProt entry, the sequences of proteins in these tests, tags left out.
# UniProt P07949, whole entry: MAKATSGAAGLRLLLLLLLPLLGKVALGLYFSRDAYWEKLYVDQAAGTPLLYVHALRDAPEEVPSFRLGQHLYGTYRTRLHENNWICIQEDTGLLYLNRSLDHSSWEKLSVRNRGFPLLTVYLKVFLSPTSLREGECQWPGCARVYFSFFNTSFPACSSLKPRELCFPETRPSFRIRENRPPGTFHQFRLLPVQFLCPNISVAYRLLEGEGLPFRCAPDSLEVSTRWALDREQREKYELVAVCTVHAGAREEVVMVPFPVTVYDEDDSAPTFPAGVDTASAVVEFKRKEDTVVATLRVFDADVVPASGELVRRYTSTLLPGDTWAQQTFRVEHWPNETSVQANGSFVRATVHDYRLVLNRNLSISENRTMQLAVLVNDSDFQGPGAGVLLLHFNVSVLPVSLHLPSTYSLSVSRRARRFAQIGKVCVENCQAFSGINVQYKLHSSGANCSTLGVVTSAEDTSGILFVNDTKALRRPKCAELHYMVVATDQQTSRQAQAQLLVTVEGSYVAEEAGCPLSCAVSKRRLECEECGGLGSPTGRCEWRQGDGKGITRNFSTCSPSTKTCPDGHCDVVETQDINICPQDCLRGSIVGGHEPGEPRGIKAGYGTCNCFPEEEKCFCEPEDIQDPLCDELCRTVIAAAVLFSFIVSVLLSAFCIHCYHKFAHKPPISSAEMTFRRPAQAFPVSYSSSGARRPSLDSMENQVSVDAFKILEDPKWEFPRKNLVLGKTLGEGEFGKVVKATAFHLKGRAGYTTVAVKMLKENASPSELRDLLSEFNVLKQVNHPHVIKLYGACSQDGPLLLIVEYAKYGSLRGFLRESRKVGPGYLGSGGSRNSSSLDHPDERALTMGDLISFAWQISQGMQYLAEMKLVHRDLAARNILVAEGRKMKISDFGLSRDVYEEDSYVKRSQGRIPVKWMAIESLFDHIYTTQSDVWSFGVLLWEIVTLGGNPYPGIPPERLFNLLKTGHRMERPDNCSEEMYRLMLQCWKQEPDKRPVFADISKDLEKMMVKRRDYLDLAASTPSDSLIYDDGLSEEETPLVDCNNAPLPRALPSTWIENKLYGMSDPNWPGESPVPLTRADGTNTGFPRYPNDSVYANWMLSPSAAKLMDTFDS
# KIF5B-RET-BaF3 = KIF5B-RET-BaF3 (Homo sapiens, UniProt P07949); experiment: Growth inhibition of KIF5B-RET-BaF3 cells stably transfected with kinase (MTS); conditions: read-out: KIF5B-RET (IC50/nM), 48 h
# Procedure: (§1) Growth inhibitory activity of compounds on cell lines stably transfected with kinase
# (§2) The activity of compounds against kinase RET is evaluated by their effect of inhibiting growth of cell lines stably transfected with kinase CCDC6-RET-BaF3, KIF5B-RET-BaF3, and wild-type BaF3 (Proc. Natl. Acad. Sci. USA., 2006, 103, 3153-8.). The growth of the cell lines stably transfected with kinase CCDC6-RET-BaF3, KIF5B-RET-BaF3 depends on their kinase activity. If a compound can inhibit the activity of the kinase RET per se or the activity of the RET signaling pathway, the compound can inhibit the growth of BaF3 cells stably transfected with kinase. […] Therefore, a larger ratio between IC50 of a compound to wild-type BaF3 and IC50 of the compound to the cell lines stably transfected with kinase CCDC6-RET-BaF3, KIF5B-RET-BaF3 indicates better targeting.
# (§3) The specific test method is given as follows:
# (§4) 1) Medium: DMEM (Dulbecco's modified eagle medium) or RPMI 1640 (containing 10% fetal bovine serum, 100 μg/mL ampicillin, 100 μg/mL streptomycin). […]
# (§5) 4) IC50 calculation: The semi-inhibitory concentration of the compound acting on cell growth was calculated using GradPad Prism 5 software according to the measured cell growth inhibition rate.
# wild-type BaF3 = experiment: Growth inhibition of wild-type BaF3 cells, broad-spectrum toxicity (MTS); conditions: read-out: WT Ba/F3 (IC50/nM), 48 h
# Procedure: as §1, §2, §3, §4, §5
# CCDC6-RET-BaF3 = CCDC6-RET-BaF3 (Homo sapiens, UniProt P07949); experiment: Growth inhibition of CCDC6-RET-BaF3 cells stably transfected with kinase (MTS); conditions: read-out: CCDC6-RET (IC50/nM), 48 h
# Procedure: as §1, §2, §3, §4, §5
SMILES,GI50 (KIF5B-RET-BaF3) [nM],IC50 (wild-type BaF3) [nM],GI50 (CCDC6-RET-BaF3) [nM]
CN1CCN(Cc2ccc(NC(=O)c3cc(Oc4nc(-c5ccncc5)nc5ccn(C)c45)ccc3Cl)cc2C(F)(F)F)CC1,13.3,1150,–
CN1CCN(Cc2ccc(C(=O)Nc3cc(Oc4nc(-c5ccc(N)cc5)nc5ccn(C)c45)ccc3Cl)cc2C(F)(F)F)CC1,2660,–,1810

# — patent US11319322B2, “Substituted aryl ether compound, preparation method thereof, pharmaceutical composition and use thereof” (Xiamen University, priority 2017, dated 2022)
